Assay results from US20150330981A1 (published 2015).

Legend:
Test in all cases: GST pull-down from HEK-293T whole cell extract, anti-HA Western blot
[1] = biological target: T1, HA PGC-1β (full-length mouse PGC-1β with HA tag) (mouse, UniProt Q8VHJ7 1-1014)
T1 construct: also called mPGC-1β; pcDNA3 HAPGC-1β; not shown: HA tag from pcDNA3 HA vector
T1 sequence (looked up): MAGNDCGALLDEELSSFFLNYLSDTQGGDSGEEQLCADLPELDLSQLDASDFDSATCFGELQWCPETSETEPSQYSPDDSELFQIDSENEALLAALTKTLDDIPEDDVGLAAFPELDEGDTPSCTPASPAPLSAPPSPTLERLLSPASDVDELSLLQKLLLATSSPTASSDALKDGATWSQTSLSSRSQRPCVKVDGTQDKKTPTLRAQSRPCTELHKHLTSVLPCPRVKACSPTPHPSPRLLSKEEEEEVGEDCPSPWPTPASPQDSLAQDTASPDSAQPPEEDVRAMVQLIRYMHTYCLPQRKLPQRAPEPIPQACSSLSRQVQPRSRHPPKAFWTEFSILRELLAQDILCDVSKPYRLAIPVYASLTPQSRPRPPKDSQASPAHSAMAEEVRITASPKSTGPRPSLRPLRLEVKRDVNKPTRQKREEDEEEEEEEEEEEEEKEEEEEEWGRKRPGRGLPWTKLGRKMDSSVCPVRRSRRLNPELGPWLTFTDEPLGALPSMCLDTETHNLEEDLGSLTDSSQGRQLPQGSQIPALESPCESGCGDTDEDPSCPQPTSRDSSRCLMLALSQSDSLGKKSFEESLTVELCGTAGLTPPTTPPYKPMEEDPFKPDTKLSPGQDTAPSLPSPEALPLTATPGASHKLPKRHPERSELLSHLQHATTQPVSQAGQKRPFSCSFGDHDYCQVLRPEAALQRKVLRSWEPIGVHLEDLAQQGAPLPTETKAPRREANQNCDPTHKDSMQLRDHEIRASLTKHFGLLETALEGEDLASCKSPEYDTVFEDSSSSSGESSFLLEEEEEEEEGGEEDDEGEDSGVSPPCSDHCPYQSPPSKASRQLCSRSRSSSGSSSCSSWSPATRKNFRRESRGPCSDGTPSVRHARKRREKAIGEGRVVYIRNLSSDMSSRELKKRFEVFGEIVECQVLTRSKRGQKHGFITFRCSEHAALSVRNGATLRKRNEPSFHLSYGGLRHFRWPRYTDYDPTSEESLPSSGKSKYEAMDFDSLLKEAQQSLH
Method: (§1) Firstly, GST fusion synoviolin which lack transmembrane domain (GST syno ΔTM) was incubated with glutathione-Sepharose 4B. The GST fusion protein was incubated with whole cell extract from HEK-293T expressing HA PPARγ, HA PPARα, HA PGC-1α, or HA PGC-1β. Bound protein was eluted and separated by SDS-PAGE, and Western blot was performed using anti-HA antibody. GST which was not fused to any protein was used as a control.

HA PGC-1α = biological target: T2, HA PGC-1α (mouse, UniProt O70343 1-797)
T2 construct: Expressed in HEK-293T; whole cell extract was used; also called mPGC-1α; not shown: HA tag
T2 sequence (looked up): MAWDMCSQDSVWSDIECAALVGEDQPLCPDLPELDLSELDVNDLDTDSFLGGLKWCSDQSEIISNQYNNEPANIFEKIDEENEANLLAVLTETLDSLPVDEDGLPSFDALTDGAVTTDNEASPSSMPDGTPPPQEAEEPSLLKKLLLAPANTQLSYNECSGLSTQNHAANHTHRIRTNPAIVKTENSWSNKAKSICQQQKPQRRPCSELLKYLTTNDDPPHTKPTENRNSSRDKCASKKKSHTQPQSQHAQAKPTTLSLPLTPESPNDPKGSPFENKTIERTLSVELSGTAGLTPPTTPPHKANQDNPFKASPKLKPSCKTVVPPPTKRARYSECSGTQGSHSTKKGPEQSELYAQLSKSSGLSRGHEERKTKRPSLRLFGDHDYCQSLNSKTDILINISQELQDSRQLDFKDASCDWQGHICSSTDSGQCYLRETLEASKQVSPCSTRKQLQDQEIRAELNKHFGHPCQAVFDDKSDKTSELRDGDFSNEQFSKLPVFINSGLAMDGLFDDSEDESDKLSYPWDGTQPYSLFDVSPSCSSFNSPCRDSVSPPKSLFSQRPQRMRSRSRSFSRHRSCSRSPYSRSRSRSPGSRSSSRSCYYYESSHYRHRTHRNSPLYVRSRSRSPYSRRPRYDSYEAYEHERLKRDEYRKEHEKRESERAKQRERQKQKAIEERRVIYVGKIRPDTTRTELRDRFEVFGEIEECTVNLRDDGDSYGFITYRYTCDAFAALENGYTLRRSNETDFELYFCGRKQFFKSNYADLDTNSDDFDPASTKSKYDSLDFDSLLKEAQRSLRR
Method: as §1

HA PPARγ = biological target: T3, HA PPARγ (mouse, UniProt P37238 1-505, limits assumed)
T3 construct: Expressed in HEK-293T; whole cell extract was used; also called mPPARγ; not shown: HA tag
T3 sequence (looked up): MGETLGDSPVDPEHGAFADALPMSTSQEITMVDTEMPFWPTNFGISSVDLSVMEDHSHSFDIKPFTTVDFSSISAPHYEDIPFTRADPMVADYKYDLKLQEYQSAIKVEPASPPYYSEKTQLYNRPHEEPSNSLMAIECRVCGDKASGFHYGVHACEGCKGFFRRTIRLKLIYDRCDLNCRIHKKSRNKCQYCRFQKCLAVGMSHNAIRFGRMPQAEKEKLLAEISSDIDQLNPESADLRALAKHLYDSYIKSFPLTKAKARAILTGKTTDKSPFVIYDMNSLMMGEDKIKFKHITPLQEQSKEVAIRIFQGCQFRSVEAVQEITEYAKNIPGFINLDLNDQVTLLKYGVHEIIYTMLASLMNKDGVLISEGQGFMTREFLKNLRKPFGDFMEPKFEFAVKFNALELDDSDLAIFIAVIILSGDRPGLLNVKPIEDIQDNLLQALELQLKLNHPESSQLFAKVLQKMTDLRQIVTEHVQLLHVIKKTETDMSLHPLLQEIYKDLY
Method: as §1

HA PPARα = biological target: T4, HA PPARα (mouse, UniProt P23204 1-468)
T4 construct: Expressed in HEK-293T; whole cell extract was used; also called mPPARα; not shown: HA tag
T4 sequence (looked up): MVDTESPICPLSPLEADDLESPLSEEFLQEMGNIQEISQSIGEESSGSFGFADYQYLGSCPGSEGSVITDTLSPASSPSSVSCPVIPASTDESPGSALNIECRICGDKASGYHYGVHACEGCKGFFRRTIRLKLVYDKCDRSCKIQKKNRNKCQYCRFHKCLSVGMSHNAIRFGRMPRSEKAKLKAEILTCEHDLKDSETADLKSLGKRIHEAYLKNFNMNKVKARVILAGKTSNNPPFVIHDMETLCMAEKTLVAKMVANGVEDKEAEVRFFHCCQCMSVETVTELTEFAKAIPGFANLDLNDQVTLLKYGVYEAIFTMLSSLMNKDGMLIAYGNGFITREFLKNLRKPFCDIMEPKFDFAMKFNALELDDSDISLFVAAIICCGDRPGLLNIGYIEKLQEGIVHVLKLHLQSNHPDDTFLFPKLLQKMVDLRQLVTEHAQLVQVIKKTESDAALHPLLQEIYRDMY
Method: as §1

Measured: binding result

B1: GST which was not fused to any protein (other, UniProt P08515 1-218, looked up)
chain: MSPILGYWKIKGLVQPTRLLLEYLEEKYEEHLYERDEGDKWRNKKFELGLEFPNLPYYIDGDVKLTQSMAIIRYIADKHNMLGGCPKERAEISMLEGAVLDIRYGVSRIAYSKDFETLKVDFLSKLPEMLKMFEDRLCHKTYLNGDHVTHPDFMLYDALDVVLYMDPMCLDAFPKLVCFKKRIEAIPQIDKYLKSSKYIAWPLQGWQATFGGGDHPPK
notes: Control of the GST pull-down
no binding: all assays above
